Columns and labels:
[1] = Aqueous solubility (MultiScreen Solubility Filter Plate); format: physicochemical
Description: Methods: Jak2-V617F expressing Human Erythroleukemia (HEL) cells were plated in 96 well plates at ˜40,000 cells per well and incubated with either vehicle control (0.25% DMSO) or with 25 uM of Jak2 kinase inhibitors. Viable cell numbers were then determined at the times (0, 4, 24, 48 and 72 hours) via trypan blue exclusion and a hemocytometer. Aqueous solubility was determined using a MultiScreen® Solubility Filter Plate (Millipore) (see Quantitative method to determine drug aqueous solubility: optimization and correlation to standard methods; http://www.millipore.com/techpublications/tech1/an1730en00) and a Spectrophotometer.

HEL cells = experiment: Jak2-V617F-induced hematopoietic disease in NOD-SCID mouse model (HEL cell injection); format: in vivo, NOD-SCID mice
Description: Methods: In the experiment, NOD-SCID mice, N=36. were randomized into 6 groups (n=6). Baseline peripheral blood samples and weights were taken at Day 0. At day 7, 2×10^6 HEL cells were injected into each mouse in Groups 2, 3, 4 and 5. At day 28, Group 1 mice were completely naïve; Group 2 mice were dosed with DMSO; Group 3 mice were dosed with 0.1 mg/kg/day G6; Group 4 mice were dosed with 1.0 mg/kg/day G6; Group 5 mice were dosed with 10 mg/kg/day G6; Group 6 mice were dosed with 10 mg/kg/day G6, until day 49. Then all the mice were euthanized.
In the experiment, the following measurable endpoints were assessed. For peripheral blood, total white blood cell (WBC) counts, the percentage of blast cells, the percentage of nucleated red blood cells (RBC), and Hematocrits were measured. For bone marrow, quantitative cellularity, and Myeloid cell to erythroid cell (M:E) ratio were assessed. Further, toxicity in spleen, brain, kidney, liver, and lung using histological analysis is assessed.
Peripheral blood samples were obtained via weekly submandibular bleeds using a 21 gauge needle. Blood samples were smeared onto glass slides, stained, and dried. Peripheral blast cells on each slide were then tabulated using a pathology light microscope. The average percent of peripheral blast cells for each treatment group was then graphed as a function of time.
At necropsy, femurs from each animal were formalin fixed, de-calcified and then parrafin embedded. Parrafin sections were then made, stained with hematoxylin and eosin and dried. The number of myeloid and erythroid cells were then tabulated by a veterinary pathologist who was blind to the treatment groups. The ratio of myeloid to erythroid cells was then graphed as a function of treatment group. Further, the average number of mature and immature erythroid cells was then graphed as a function of treatment group.
Additionally, at necropsy, animals were weighed one final time and spleens were then removed from each mouse. The wet weight of each spleen was recorded and the spleen weight to body weight ratio was graphed as a function of treatment group.

Substance | Aqueous Solubility [1] [µM] | ratio of Myeloid cells:Erythoid cells (bone marrow) (HEL cells; HEL cell injected mice, 0.1 mg/kg G6) | ratio of Myeloid cells:Erythoid cells (bone marrow) (HEL cells; HEL cell injected mice, 1.0 mg/kg G6) | ratio of Myeloid cells:Erythoid cells (bone marrow) (HEL cells; HEL cell injected mice, 10 mg/kg G6) | ratio of Myeloid cells:Erythoid cells (bone marrow) (HEL cells; SCID mice without HEL cells, 10 mg/kg G6) | minimum dose reversing HEL cell induced decrease in ratio of Myeloid cells:Erythoid cells (HEL cells; mouse, in vivo) [mg/kg/day] | spleen weight to body weight ratio (HEL cells; mouse, in vivo)
(Z)- and (E)-4,4′-(But-2-ene-2,3-diyl)bis(2-((diethylamino)methyl)phenol) [NB-2] | 816 | – | – | – | – | – | –
(Z) and (E)-4,4′-(Hex-3-ene-3,4-diyl)bis(2-((diethylamino)methyl)phenol) [Compound G6] | 455 | 0.3 | 1.25 | 1.2 | 1.1 | 1 | reduces the spleen weight to body weight ratio

— patent publication US20110301159A1, “KINASE INHIBITOR COMPOUNDS” (UNIVERSITY OF SOUTH FLORIDA, priority 2008, published 2011)
